Sequences of proteins named here, by UniProt entry; tags and fusion partners are left off.
UniProt O15054, whole entry: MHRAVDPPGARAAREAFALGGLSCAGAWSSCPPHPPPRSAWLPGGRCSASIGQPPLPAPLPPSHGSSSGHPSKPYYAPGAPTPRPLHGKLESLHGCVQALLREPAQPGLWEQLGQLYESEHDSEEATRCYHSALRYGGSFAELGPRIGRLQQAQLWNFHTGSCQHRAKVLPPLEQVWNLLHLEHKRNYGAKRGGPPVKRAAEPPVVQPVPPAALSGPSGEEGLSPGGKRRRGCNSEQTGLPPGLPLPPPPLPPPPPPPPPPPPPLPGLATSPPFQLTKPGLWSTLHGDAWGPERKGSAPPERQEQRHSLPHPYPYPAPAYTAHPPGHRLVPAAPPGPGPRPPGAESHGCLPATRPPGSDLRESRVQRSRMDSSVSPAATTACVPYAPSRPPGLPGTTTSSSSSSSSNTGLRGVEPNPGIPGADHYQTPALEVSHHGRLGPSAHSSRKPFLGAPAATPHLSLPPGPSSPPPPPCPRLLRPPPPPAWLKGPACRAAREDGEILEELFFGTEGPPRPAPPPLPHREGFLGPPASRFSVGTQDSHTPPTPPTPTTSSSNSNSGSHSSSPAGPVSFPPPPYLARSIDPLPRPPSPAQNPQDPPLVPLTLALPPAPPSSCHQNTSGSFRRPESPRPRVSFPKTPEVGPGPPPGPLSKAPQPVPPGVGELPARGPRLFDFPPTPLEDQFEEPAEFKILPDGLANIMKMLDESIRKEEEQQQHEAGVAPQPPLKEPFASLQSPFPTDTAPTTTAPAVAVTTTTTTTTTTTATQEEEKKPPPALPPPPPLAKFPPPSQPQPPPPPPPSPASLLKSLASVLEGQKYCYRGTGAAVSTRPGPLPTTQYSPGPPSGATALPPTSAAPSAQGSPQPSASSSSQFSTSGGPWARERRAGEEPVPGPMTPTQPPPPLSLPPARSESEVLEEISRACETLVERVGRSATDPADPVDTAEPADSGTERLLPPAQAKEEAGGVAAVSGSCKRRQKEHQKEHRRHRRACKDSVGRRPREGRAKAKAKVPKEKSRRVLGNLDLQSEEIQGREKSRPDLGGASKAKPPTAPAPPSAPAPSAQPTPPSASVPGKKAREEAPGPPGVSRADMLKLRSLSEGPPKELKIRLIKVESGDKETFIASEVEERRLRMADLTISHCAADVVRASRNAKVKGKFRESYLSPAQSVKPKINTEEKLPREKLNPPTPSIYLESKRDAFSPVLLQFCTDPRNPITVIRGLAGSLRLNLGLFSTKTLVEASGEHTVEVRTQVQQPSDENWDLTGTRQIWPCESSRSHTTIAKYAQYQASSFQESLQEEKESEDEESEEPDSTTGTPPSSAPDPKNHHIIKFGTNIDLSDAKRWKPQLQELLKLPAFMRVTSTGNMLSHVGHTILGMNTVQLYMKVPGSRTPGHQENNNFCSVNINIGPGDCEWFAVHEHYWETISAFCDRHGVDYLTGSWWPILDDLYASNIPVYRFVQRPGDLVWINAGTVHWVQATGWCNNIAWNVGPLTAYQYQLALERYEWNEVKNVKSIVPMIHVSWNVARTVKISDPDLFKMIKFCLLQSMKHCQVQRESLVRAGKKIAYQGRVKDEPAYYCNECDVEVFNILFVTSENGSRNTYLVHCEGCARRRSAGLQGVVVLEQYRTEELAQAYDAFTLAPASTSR

In PMC5384220, “Highly selective inhibition of histone demethylases by de novo macrocyclic peptides” (Nature Communications, 2017):

T1: KDM4D (human, UniProt Q6B0I6 1-523)
T1 sequence (looked up): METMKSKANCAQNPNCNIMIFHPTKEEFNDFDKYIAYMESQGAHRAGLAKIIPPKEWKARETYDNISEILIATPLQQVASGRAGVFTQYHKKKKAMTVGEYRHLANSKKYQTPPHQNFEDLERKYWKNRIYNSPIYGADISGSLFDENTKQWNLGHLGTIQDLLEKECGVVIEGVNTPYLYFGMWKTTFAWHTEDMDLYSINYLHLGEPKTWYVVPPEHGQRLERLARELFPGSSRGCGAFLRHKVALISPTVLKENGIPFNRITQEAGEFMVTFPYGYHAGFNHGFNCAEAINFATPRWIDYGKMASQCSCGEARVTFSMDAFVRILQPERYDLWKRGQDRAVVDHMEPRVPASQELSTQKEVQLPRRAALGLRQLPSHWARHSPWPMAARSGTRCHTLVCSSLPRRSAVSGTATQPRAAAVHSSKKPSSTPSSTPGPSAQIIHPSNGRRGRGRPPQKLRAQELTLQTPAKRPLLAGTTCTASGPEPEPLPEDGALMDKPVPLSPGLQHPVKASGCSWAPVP

T2: KDM3A (human, UniProt Q9Y4C1 1-1321)
T2 sequence (looked up): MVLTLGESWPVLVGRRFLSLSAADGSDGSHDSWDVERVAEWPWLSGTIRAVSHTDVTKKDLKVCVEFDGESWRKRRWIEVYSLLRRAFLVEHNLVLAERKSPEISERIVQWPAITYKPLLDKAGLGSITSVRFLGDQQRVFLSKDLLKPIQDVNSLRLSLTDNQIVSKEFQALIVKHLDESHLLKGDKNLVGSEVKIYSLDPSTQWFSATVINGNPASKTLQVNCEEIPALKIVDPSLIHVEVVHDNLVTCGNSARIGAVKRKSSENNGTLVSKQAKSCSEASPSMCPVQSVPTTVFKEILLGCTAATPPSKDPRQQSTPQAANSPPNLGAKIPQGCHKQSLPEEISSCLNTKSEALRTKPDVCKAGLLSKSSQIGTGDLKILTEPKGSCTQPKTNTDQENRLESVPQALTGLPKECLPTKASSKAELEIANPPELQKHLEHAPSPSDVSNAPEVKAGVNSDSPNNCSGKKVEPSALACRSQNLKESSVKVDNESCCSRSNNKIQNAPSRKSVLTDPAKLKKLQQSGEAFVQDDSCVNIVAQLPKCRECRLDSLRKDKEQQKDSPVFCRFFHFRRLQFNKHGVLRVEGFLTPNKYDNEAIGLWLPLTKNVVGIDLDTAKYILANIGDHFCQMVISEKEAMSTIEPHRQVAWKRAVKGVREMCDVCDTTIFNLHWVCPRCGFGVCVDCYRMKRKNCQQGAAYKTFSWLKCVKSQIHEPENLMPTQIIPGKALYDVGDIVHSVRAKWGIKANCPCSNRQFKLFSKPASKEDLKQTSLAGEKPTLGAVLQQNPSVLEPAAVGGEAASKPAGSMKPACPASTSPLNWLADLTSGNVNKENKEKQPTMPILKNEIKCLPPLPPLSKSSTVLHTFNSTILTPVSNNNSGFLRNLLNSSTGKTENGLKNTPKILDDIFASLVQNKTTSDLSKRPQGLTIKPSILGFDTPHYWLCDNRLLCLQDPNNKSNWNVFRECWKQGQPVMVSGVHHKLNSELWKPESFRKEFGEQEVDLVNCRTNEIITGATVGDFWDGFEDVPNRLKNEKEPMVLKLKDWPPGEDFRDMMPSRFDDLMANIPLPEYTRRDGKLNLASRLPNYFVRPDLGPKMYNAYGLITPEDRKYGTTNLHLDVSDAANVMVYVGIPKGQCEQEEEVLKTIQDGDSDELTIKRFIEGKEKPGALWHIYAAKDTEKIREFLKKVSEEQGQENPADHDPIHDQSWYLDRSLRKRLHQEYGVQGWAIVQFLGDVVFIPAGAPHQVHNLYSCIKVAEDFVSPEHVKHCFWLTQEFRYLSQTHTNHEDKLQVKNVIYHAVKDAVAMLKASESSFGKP

T3: KDM4E (human, UniProt B2RXH2 1-506)
T3 sequence (looked up): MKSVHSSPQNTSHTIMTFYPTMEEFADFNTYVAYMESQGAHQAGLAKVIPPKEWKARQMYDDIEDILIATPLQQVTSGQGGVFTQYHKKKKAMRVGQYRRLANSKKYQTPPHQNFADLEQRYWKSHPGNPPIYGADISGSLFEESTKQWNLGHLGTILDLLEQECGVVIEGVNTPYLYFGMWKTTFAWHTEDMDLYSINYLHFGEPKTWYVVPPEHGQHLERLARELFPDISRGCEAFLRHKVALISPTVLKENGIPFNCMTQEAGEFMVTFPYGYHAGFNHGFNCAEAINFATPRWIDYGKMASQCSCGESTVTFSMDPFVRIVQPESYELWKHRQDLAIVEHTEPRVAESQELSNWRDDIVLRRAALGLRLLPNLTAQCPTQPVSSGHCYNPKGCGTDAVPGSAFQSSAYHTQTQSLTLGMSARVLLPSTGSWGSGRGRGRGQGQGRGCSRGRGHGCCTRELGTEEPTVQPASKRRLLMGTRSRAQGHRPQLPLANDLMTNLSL

T4: His-KDM4A_(1–359)-Bio (human, UniProt O75164 1-359, biotin on the AviTag (>95% biotinylation))
T4 construct: KDM4A, residues 1-359, cloned into pNIC-Bio3; also called His-KDM4A-Bio; His-KDM4A with biotin; not shown: AviTag, C-terminal, kept
T4 sequence (looked up): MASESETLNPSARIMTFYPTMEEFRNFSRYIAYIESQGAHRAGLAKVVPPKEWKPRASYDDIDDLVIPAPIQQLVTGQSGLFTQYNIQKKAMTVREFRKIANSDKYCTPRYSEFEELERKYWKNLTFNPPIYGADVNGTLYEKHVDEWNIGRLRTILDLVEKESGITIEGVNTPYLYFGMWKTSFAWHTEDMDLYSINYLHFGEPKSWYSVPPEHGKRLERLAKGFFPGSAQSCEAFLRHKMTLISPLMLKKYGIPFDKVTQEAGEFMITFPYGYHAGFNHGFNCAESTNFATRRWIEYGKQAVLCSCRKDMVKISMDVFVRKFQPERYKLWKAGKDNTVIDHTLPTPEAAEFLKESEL

T5: KDM4B (human, UniProt O94953 1-1096)
T5 sequence (looked up): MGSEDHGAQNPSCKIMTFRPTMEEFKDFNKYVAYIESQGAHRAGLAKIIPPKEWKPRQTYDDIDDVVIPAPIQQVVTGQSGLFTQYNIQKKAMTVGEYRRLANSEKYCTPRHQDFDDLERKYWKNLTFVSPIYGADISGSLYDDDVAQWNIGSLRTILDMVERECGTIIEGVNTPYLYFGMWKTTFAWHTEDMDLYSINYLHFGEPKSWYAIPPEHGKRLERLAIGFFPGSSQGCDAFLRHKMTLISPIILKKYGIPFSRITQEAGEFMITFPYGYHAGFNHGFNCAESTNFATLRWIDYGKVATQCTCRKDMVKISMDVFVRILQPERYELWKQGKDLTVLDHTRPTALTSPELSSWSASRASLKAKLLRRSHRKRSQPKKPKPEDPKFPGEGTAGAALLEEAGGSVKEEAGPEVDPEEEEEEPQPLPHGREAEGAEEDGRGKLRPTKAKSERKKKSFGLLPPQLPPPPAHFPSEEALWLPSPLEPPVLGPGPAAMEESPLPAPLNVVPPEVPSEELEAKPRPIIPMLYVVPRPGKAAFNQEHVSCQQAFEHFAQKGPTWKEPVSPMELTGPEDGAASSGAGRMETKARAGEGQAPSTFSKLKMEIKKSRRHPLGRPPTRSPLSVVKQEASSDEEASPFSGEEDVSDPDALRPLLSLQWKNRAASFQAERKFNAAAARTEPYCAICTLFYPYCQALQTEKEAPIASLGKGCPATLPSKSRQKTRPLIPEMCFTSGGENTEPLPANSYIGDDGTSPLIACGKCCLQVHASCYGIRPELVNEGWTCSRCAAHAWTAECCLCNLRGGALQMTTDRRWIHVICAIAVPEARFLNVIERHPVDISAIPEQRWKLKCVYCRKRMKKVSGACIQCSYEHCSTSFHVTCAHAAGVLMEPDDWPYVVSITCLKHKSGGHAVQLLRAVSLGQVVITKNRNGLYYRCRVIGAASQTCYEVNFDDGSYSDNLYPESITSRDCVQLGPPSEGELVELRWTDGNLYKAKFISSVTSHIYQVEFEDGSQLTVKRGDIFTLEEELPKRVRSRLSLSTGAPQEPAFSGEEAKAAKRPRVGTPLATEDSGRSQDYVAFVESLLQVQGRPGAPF

T6: N-terminally Hexa-His-tagged KDM4A (residues 1–359) (human, UniProt O75164 1-359)
T6 sequence (looked up): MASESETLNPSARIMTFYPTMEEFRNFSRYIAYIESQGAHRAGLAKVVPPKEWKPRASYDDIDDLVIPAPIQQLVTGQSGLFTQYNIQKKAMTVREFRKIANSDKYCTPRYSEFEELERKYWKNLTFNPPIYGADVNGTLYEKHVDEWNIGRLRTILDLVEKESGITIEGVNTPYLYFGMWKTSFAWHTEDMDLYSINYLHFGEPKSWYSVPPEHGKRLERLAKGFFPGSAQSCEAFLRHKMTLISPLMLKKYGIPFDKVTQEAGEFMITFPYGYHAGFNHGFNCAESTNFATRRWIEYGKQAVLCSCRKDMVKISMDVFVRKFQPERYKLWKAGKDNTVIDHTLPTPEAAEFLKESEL

T7: KDM4C (human, UniProt Q9H3R0 1-1056)
T7 sequence (looked up): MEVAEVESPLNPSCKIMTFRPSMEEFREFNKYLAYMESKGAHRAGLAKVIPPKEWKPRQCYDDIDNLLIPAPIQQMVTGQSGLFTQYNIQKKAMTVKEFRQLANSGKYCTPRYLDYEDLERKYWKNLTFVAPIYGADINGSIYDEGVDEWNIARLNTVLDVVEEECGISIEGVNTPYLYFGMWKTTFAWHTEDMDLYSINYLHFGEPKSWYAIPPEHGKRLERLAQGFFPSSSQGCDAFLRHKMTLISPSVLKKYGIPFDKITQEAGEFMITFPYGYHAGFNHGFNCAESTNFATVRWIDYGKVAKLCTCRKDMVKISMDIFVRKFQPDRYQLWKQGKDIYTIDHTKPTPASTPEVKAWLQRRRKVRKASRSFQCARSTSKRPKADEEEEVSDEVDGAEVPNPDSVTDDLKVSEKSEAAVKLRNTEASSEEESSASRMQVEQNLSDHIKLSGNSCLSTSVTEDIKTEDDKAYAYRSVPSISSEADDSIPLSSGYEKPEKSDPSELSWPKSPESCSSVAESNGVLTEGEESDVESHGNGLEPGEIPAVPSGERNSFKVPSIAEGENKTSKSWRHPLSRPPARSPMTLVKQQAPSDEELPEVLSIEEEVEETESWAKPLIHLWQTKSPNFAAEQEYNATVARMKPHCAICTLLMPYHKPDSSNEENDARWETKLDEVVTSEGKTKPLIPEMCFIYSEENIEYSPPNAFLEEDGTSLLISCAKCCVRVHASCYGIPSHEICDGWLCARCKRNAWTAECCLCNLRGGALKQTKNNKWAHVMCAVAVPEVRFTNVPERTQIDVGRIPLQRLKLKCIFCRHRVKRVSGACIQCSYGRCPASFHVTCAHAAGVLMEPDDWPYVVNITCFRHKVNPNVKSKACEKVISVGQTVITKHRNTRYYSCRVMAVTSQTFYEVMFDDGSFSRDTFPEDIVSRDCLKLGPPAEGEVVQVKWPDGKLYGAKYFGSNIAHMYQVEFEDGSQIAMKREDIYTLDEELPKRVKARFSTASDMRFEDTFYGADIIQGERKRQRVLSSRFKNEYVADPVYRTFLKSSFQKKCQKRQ


Assays:
KDM6B = KDM6B (human, UniProt O15054 1-1643); test: cell-based or functional assay
KDM4D = target: T1, KDM4D; test: cell-based or functional assay
KDM3A = target: T2, KDM3A; test: cell-based or functional assay
KDM4E = target: T3, KDM4E; test: cell-based or functional assay
His-KDM4A_(1–359)-Bio = target: T4, His-KDM4A_(1–359)-Bio; test: BLI; His-KDM4A(1–359)-Bio (70 nM) immobilised on super streptavidin biosensor, peptides at different concentrations in solution; OctetRed 384; 50 mM HEPES pH 7.5, 150 mM NaCl, 10 μM ammonium iron(II) sulphate; conditions: both partners purified
KDM4B = target: T5, KDM4B; test: cell-based or functional assay
[1] = target: T6, N-terminally Hexa-His-tagged KDM4A …; test: cell-based or functional assay
KDM4C = target: T7, KDM4C; test: cell-based or functional assay

IC50 of inhibition of demethylase activity (AlphaScreen activity assay) (KDM6B) | IC50 of inhibition of demethylase activity (AlphaScreen activity assay) (KDM4D) | IC50 of inhibition of demethylase activity (AlphaScreen activity assay) (KDM3A) | IC50 of inhibition of demethylase activity (AlphaScreen activity assay) (KDM4E) | Kd (His-KDM4A_(1–359)-Bio) | IC50 of inhibition of demethylase activity (AlphaScreen activity assay) (KDM4B) | IC50 of inhibition of demethylase activity (AlphaScreen activity assay) [1] | IC50 of inhibition of demethylase activity (AlphaScreen activity assay) (KDM4C) | Binder
7200 nM | 6260 nM | 9900 nM | 4700 nM | 36 nM |  |  |  | YLKSRRSGLTWIPC (N-terminal L-Tyr (^LTyr library, N-chloroacetyl-L-Tyr) cyclised by a thioether to a downstream cysteine) [CP4]
 |  |  | 8900 nM | 173 nM | 472 nM | 313 nM | 123 nM | YSKYTQSGVRWVC (N-terminal L-Tyr (^LTyr library, N-chloroacetyl-L-Tyr) cyclised by a thioether to a downstream cysteine) [CP5]
